{"source": "paper PMC5997768", "about": "(2018)", "key": {"healthy rats [1]": {"system": "healthy rats", "details": "rat, in vivo"}, "healthy rats [2]": {"system": "healthy rats", "details": "rat, in vivo", "remark": "listed apart in the source"}}, "data": [{"smiles": "CN1CC[C@]23c4c5ccc(O)c4O[C@H]2[C@@H](O)C=C[C@H]3[C@H]1C5", "note": "[Morphine]", "values": [{"measurement": "Decreased locomotor activity at later time points", "setting": "healthy rats [1]", "value": "not seen"}, {"measurement": "Locomotor activity at 5 min after injection vs vehicle", "setting": "healthy rats [1]; sc", "value": "significantly decreased locomotor activity"}, {"measurement": "Heart rate", "setting": "healthy rats [2]", "value": "impaired"}, {"measurement": "Respiratory rate", "setting": "healthy rats [2]", "value": "transiently elevated"}]}]}
